This data set can be described thus: Gradient of fluorescent dextran across collagen gel scaffold, dual fluid-flow path device, static conditions.

Some results are limits rather than exact numbers.

For the substance dextran, for the setting “40 kDa dextran, initial 20 μg mL^−1 in one channel, collagen scaffold, static”, the “time to reach steady state concentration profile in the gel cage” value was ≤ 40 min. The diffusion coefficient (value assumed in finite element model compared with steady state experimental data, 40 kDa dextran in collagen gel) was 1×10^−6 cm^2 s^−1.

The values above are taken from patent US9121847B2, “Three-dimensional microfluidic platforms and methods of use thereof” (Massachussetts Institute of Technology, priority 2008, dated 2015).
